# Experimental data as given in PubChem BioAssay AID1224905 (ICCB-Longwood Screening Facility, Harvard Medical School, 2016).
# Amino acid sequences for entries named in this document (tags omitted).
# UniProt P08753, whole entry: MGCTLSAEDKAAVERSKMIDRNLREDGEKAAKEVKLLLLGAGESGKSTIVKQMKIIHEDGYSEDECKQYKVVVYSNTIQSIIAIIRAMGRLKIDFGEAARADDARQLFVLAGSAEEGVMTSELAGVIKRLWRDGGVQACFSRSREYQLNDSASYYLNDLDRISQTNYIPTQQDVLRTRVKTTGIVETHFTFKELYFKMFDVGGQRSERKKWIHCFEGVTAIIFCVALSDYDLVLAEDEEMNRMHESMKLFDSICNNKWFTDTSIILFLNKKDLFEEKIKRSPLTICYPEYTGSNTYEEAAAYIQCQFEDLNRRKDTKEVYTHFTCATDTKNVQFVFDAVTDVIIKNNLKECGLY
# UniProt Q3V6T2, whole entry partner: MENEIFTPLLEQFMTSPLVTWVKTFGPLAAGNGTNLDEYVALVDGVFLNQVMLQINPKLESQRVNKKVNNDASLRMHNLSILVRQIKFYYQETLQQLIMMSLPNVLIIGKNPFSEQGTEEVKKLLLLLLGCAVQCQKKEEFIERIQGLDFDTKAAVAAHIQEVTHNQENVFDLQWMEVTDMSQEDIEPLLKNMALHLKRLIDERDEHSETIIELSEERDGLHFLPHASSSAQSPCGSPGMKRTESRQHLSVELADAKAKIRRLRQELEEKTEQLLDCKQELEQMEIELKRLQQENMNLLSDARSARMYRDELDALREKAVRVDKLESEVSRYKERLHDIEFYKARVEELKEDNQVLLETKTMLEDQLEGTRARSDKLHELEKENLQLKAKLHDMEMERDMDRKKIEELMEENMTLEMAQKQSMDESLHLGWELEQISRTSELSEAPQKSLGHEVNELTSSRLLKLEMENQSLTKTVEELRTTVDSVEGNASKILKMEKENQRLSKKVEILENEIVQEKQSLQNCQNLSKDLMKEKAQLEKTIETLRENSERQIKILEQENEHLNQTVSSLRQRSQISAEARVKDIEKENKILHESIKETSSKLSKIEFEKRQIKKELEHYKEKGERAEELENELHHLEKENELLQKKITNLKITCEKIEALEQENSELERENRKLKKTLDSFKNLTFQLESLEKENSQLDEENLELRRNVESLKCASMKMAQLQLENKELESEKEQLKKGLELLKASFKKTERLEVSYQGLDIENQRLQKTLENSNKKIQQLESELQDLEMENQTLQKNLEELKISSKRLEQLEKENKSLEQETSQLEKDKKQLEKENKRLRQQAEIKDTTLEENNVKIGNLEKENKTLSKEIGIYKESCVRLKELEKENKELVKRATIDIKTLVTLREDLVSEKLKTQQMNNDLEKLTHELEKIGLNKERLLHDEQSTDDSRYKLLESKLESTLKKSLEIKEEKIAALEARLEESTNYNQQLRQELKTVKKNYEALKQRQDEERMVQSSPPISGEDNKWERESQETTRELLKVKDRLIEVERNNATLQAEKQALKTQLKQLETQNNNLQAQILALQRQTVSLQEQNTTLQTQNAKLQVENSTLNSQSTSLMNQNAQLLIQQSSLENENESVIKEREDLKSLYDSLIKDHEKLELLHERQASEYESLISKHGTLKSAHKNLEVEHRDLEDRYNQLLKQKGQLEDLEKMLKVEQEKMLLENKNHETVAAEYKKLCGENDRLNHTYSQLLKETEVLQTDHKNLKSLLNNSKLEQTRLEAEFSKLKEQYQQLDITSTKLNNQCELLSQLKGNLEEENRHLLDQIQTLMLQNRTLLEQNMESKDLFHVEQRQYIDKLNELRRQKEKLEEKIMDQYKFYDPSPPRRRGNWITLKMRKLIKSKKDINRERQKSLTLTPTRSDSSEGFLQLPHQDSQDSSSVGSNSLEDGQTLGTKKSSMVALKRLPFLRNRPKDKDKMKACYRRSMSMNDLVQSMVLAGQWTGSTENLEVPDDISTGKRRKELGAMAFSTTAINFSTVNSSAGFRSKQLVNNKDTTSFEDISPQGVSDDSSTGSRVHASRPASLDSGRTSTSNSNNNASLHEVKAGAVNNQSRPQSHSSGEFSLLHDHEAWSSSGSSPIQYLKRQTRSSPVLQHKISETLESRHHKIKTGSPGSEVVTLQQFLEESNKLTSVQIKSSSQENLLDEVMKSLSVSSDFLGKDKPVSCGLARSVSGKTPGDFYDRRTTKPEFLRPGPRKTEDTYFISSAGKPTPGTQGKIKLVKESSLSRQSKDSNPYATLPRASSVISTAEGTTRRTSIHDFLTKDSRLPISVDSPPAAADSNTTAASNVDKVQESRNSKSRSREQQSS
# The list shows a part of the results, in another mix than the full data. Activity calls are given as the source filed them.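 Rule for the calls: active = mean replicate percent of control at or below 100 minus about 85%, very high polarization wells dropped (limit read from the data); inactive = the rest.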
# Target: Guanine nucleotide-binding protein G(i) subunit alpha-3 (Rattus norvegicus) (UniProt P08753)
# Assay: inhibitors of GIV peptide binding to Galpha-i3, primary screen, biochemical, fluorescence polarization, FITC-GIV GBA peptide, rat Galphai3 (AID 1224905)
# Conditions: 90 min, stronger effect = lower value, scaled: aluminum fluoride 0%, vehicle 100%
row,Structure (SMILES),percent of control (FP)
1,NC(=O)C1(Nc2ccc(F)cc2)CCNCC1,inactive: 106%
2,Cc1c(C(=O)NCC2(N(C)C)CCCCC2)oc2ccc(Br)cc12,inactive: 101%
3,c1ccc(CN2CCC(Nc3ccc4c(c3)OCO4)CC2)cc1,inactive: 111%
4,O=C(NCC1(N2CCOCC2)CCCCC1)c1ccccc1Br,inactive: 100%
5,CCCCOc1ccccc1C(=O)NCC1(N2CCOCC2)CCCCC1,inactive: 102%
6,FC(F)(F)Oc1ccc(NC2CCNCC2)cc1,inactive: 102%
7,Cc1ccc2c(C)c(C(=O)NCC3(N(C)C)CCCCC3)oc2c1C,inactive: 107%
8,CCCOc1cccc(C(=O)NCC2(N3CCOCC3)CCCCC2)c1,inactive: 98.8%
9,CCOc1ccc(C(=O)NCC2(N3CCOCC3)CCCCC2)cc1,inactive: 101%
10,CC(C)(C)OC(=O)N1CCC(Nc2ccc(OC(F)(F)F)cc2)CC1,inactive: 107%
11,CCOC(=O)N1CCC(Nc2cccc(C)c2)CC1,inactive: 98.9%
12,O=C1CCN(Cc2ccccc2)CC1,inactive: 106%
13,O=C(NCC1(N2CCOCC2)CCCCC1)c1ccc(Cl)cc1,inactive: 103%
14,CCOC(=O)N1CCC(Nc2ccc(F)cc2)CC1,inactive: 102%
15,Cc1c(C(=O)NCC2(N3CCOCC3)CCCCC2)oc2cc(Br)ccc12,inactive: 98.3%
16,COc1ccccc1C(=O)NCC1(N2CCOCC2)CCCCC1,inactive: 104%
17,Cc1cc(C)c2c(C)c(C(=O)NCC3(N4CCOCC4)CCCCC3)oc2c1,inactive: 98.3%
18,N#CC1(Nc2ccccc2)CCN(Cc2ccccc2)CC1,inactive: 103%
19,Cc1c(C(=O)NCC2(N3CCOCC3)CCCCC2)oc2ccc(Cl)cc12,inactive: 105%
20,CCCN1CCC(Nc2ccc(OC)c(OC)c2)CC1,inactive: 95%

row,Structure (SMILES),percent of control (FP)
1,Cc1ccccc1NC1CC(C)(C)NC(C)(C)C1,inactive: 99.3%
2,Cc1c(C(=O)NCC2(N3CCOCC3)CCCCC2)oc2ccc(Br)cc12,inactive: 105%
3,COc1cc(C(=O)NCC2(N3CCOCC3)CCCCC2)cc(OC)c1OC,inactive: 99.6%
4,Cc1c(C(=O)NCC2(N(C)C)CCCCC2)oc2ccc(Cl)cc12,inactive: 105%
5,CC(C)(C)OC(=O)N1CCC(Nc2ccccc2)CC1,inactive: 99.5%
6,CC1CN(C)C(C)CC1Nc1ccccc1 (stereo not given),inactive: 107%
7,CCN1CCC(Nc2ccc(F)cc2)CC1,inactive: 105%
8,CC(C)(C)c1ccc(C(=O)NCC2(N3CCOCC3)CCCCC2)cc1,inactive: 103%
9,Cc1ccccc1C(=O)NCC1(N(C)C)CCCCC1,inactive: 106%
10,CC1CN(Cc2ccccc2)CCC1=O (stereo not given),inactive: 113%
11,CN(C)C1(CNC(=O)c2ccc(C(C)(C)C)cc2)CCCCC1,inactive: 103%
12,O=C(NCC1(N2CCOCC2)CCCCC1)c1ccccc1,inactive: 103%
13,CCCN1CCC(Nc2cc(OC)cc(OC)c2)CC1,inactive: 96.1%
14,O=C(NCC1(N2CCOCC2)CCCCC1)c1ccc([N+](=O)[O-])cc1,inactive: 105%
15,Cc1c(C(=O)NCC2(N3CCOCC3)CCCCC2)oc2ccc(F)cc12,inactive: 96.9%
16,O=C(NCC1(N2CCOCC2)CCCCC1)c1ccccc1[N+](=O)[O-],inactive: 103%
17,Cc1c(C(=O)NCC2(N(C)C)CCCCC2)oc2cc(Br)ccc12,inactive: 107%
18,O=C1CCN(CCc2ccccc2)CC1,inactive: 111%
19,CN1CCC(Nc2ccc(F)cc2)CC1,inactive: 103%
20,NC(=O)C1(Nc2ccccc2)CCN(Cc2ccccc2)CC1,inactive: 106%
